# Results: patent US8916579B2, “5-fluoropyrimidinone derivatives” (Dow AgroSciences, LLC., priority 2009, dated 2014)
# Read-outs that look alike come from different tables or passages of the source.
# Test system: Mycosphaerella graminicola; anamorph: Septoria tritici; Bayer code SEPTTR
# Assay: Fungicidal activity: leaf blotch of wheat, greenhouse wheat plants (variety Yuma), percent disease control
# Format: in vivo
# Conditions: Zymoseptoria tritici
# Experimental: Evaluation of Fungicidal Activity: Leaf Blotch of Wheat (Mycosphaerella graminicola; anamorph: Septoria tritici; Bayer code SEPTTR)
# Wheat plants (variety Yuma) were grown from seed in a greenhouse in 50% mineral soil/50% soil-less Metro mix until the first leaf was fully emerged, with 7-10 seedlings per pot. These plants were inoculated with an aqueous spore suspension of Septoria tritici either prior to or after fungicide treatments. After inoculation the plants were kept in 100% relative humidity (one day in a dark dew chamber followed by two to three days in a lighted dew chamber) to permit spores to germinate and infect the leaf. The plants were then transferred to a greenhouse for disease to develop.
# The effectiveness of the test compounds in controlling disease was determined by assessing the severity of disease on treated plants, then converting the severity to percent control based on the level of disease on untreated, inoculated plants. • In each case of Table II the rating scale is as follows: […]
smiles,measurement,setting,value
"O=C(Nc1nc(=O)n(CC2CCCO2)cc1F)c1cccs1 (centres unmarked) [Compound 94, N-(5-fluoro-2-oxo-1-((tetrahydrofuran-2-yl)methyl)-1,2-dihydropyrimidin-4-yl)thiophene-2-carboxamide]",pest or weed control at 100 ppm,"24 h, read-out: SEPTTR 100 PPM 1DP (% Disease Control rating)",0 to 25%
same,pest or weed control at 100 ppm,"72 h, read-out: SEPTTR 100 PPM 3DC (% Disease Control rating)",0 to 25%
